BindingDB's records for PubMed 11454918

Amino acid sequences for entries named in this document (tags omitted).
UniProt P23977, whole entry: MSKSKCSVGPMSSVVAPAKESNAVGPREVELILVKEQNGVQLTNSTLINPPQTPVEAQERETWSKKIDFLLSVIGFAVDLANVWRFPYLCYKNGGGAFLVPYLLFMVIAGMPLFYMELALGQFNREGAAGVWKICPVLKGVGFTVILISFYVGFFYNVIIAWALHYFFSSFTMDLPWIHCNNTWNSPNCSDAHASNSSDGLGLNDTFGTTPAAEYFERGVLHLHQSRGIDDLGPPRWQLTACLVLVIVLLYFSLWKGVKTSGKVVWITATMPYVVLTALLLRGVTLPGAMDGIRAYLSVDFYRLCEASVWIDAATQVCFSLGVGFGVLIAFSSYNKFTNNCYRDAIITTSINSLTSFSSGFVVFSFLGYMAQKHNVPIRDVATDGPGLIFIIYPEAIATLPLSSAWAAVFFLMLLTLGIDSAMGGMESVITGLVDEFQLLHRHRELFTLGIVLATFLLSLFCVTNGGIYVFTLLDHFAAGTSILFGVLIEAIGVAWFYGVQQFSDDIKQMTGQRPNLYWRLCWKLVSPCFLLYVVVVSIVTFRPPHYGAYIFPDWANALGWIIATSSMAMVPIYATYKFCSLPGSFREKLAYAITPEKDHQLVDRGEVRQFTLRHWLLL

Biological target: Sodium-dependent dopamine transporter (Rattus norvegicus, UniProt P23977)

Ki: > 10 µM
Structure (SMILES): CN(C)CCCC1(c2ccc(F)cc2)OCc2cc(C#N)ccc21 (stereo unspecified)
